AlphaSeq binding of Ab-95 light chain variants to a spike HR2 peptide

Reference: Engelhart et al. 2022, doi:10.1038/s41597-022-01779-4. File: FLAb, binding data.

The target is the same throughout: PDVDLGDISGINAS, from the HR2 region of SARS-CoV-2 spike.

The variants keep the heavy chain, the linker and the frameworks of Ab-95 (scFv order VH, a 15-residue (Gly4Ser)3 linker, VL).
VH: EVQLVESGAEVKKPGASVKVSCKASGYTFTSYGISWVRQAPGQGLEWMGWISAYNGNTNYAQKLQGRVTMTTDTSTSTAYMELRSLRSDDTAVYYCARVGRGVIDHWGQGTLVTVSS
VL: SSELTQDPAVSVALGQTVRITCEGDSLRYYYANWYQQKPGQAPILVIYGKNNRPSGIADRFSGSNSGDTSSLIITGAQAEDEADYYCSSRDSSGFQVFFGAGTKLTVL

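The starting antibody came from a phage panning campaign against this peptide. The library (AAYL52) carries one to three amino acid substitutions per variant, with no insertions or deletions. AlphaSeq pools MATa yeast showing the antibodies with MATalpha yeast showing the peptide. Mating (16 h, 30 °C) was followed by selection of diploids and sequencing of their barcodes. A regression on co-assayed BCL2-family reference pairs converts the normalised counts of each replicate to an apparent Kd. Each pool was mated in three replicate cultures.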

Each variant is given by its three light chain CDRs, as the data file delimits them; those of the parent are EGDSLRYYYAN, GKNNRPS, SSRDSSGFQVF.
Affinities are written as log10 Kd with Kd in nM; a lower number is a better binder.
Replicates are averaged; those with no signal do not enter the mean.
Where no diploid with the target was found in any replicate, the entry reads "no signal": below detection, most likely a poor binder, though not proof of it.

mean log10 Kd (nM) | detected | CDR-L1 | CDR-L2 | CDR-L3
2.62 | 3 of 3 | EGDSLRYYYAN | GKNLRPS | VSRDSSGHQVF
2.27 | 3 of 3 | EGDSLPYYYAN | GDNNRPS | SSRDSSGHQVF
4.28 | 1 of 3 | EGDTLRYYYAN | GKNNRPS | ASKDSSGFQVF
1.63 | 3 of 3 | EGSSQRYYYAN | GKNNRPS | SSRDQSGFQVF
2.33 | 3 of 3 | EGDSLRYYYAN | GHNNRPS | SSRDSSGQQVF
no signal | 0 of 3 | EGDSKRYYYWN | GKNNRPS | SSRDSFGFQVF
3.35 | 2 of 3 | EGWSLRYYYAN | GKNNRPS | SSRDSSGHQVF
3.46 | 3 of 3 | EGDSLRYFYAN | GKNNRPH | SGRDSSGFQVF
4.11 | 2 of 3 | EGDSLRYYYAN | GKNNRPS | SPRDSSGFLVQ
2.05 | 3 of 3 | DGDSLRYYYAN | GKNNRPD | ASRDSSGFQVF
2.91 | 3 of 3 | CGDSLRYYYAN | GKNNRPS | KSRDSSGFQVG
4.38 | 1 of 3 | EGDSERCYYAN | GKRNRPS | SSRDSSGFQVF
no signal | 0 of 3 | EGLSLRYYYAN | GKNNRPS | ISGDSSGFQVF
2.51 | 3 of 3 | EGDSLRYYSAN | GKANRPS | SSWDSSGFQVF
1.50 | 3 of 3 | EGDSLRYYYPN | GKNNRPS | SSRFSSGFKVF
4.68 | 1 of 3 | EGDSLRYYYGV | GKNNRPS | SSRDSSGCQVF
no signal | 0 of 3 | EGDSLRCYYDN | GVNNRPS | SSRDSSGFQVF
2.46 | 3 of 3 | EGDSLPYQYAN | GKNNRPS | SSRDSSGFQKF
4.06 | 1 of 3 | EGDSLQYYYAN | GKNNRPS | SSRDWSGWQVF
3.76 | 2 of 3 | EGDSLRYYYAN | GKNNRIS | SSRDWSGFQVF
3.06 | 3 of 3 | EGDSLRKYYAN | GKNNRPS | SSRNPSGFQVF
no signal | 0 of 3 | NGDPLRYYYAL | GKNNRPS | SSRDSSGFQVF
3.29 | 2 of 3 | EGDSLRYYYAN | DKWNRPS | NSRDSSGFQVF
no signal | 0 of 3 | EGDSLRYYYAL | GKNNSPS | SSRDSAGFQVF
2.15 | 3 of 3 | EGASLRYYYAN | GKNNRPS | PSRDSSGFQVF
4.12 | 3 of 3 | EGLSTRYYYAN | GKNNRPS | SSRDSSGFCVF
4.18 | 2 of 3 | NGDSPREYYAN | GKNNRPS | SSRDSSGFQVF
3.91 | 1 of 3 | EGDSLEYYYAN | GKNNRPS | SSRDSSGFQNF
1.29 | 3 of 3 | EGDSLRYPNAN | GKNNRPS | SSCDSSGFQVF
3.92 | 2 of 3 | EGDGGRYYYAN | GKNNRPS | SSRDSSGFNVF
4.87 | 1 of 3 | EGDSLRYYYFN | GKNNRPS | SSRDSRGFKVF
2.95 | 3 of 3 | EGDSLRYYYAN | GKNNRPC | VSRDSSGFQHF
no signal | 0 of 3 | EEDSCRYYYAK | GKNNRPS | SSRDSSGFQVF
1.77 | 3 of 3 | EGDSLRYYYAN | GKNNRPS | SSRDSQGFTVF
4.26 | 3 of 3 | EGDSLRYYYAR | GKNNRPS | SSRDSAGFQVF
4.52 | 1 of 3 | EGDSLRYYYAN | WTNNRPS | SSRPSSGFQVF
1.48 | 3 of 3 | EGDSLRYYEAN | GKNNRPW | SSRDSSGAQVF
4.95 | 1 of 3 | HIDSLRYYYAN | GKNNPPS | SSRDSSGFQVF
2.87 | 3 of 3 | EGDSLRYYYAN | GKNNRPP | SSRDSSFFDVF
no signal | 0 of 3 | EGDSLRYYYAN | GKYNRAS | SSRDSSGFWVF
4.09 | 3 of 3 | YGDSLRYYMAN | GKNNRWS | SSRDSSGFQVF
4.13 | 3 of 3 | EGDSLRYYWAN | DKNNRPF | SSRDSSGFQVF
no signal | 0 of 3 | EGCSLRYYYAN | GKNNRTS | SSRRSSGFQVF
1.17 | 3 of 3 | EGDVLGYAYAN | GKNNRPS | SSRDSSGFQVF
3.24 | 3 of 3 | EGDSLRYYYAN | GKNNRPS | SSRDASGFQIT
3.20 | 1 of 3 | EGDSLEYYKAN | GKNNRPS | SSRDSSLFQVF
1.72 | 3 of 3 | EGDSLRYYAAN | GKNNRPS | SPRHSSGFQVF
4.25 | 2 of 3 | EWDSLRYYYAN | GKVNRPS | SSRDSSGFQVF
3.00 | 3 of 3 | EGDSLRYYYAN | GKNNRVS | SSQDSSGKQVF
4.25 | 2 of 3 | EGDSLRYYYAN | GKNNRPS | SSRDSWGPQVF
4.76 | 1 of 3 | EGRSLRYFYAN | GKNCRPS | SSRDSSGFQVF
no signal | 0 of 3 | EGQSLRYYYAN | QKNNRPS | SSRDTSGFQVF
2.76 | 3 of 3 | EGASLRYYYAN | GMNNRPF | SSRDSSGFQVF
no signal | 0 of 3 | EGDSLRYYYAC | GKNNRPS | QSRDSSGFDVF
3.26 | 2 of 3 | EGDSLRYYYAN | GKNNRWS | SSRDSSMSQVF
2.98 | 2 of 3 | EGDSLRYYYAN | GRNNRPS | SWRDSSGFQVY
2.85 | 2 of 3 | EGDSLRLYYAN | DKNNRPS | SSRDSSGMQVF
4.03 | 1 of 3 | AGDSPRYYYAN | GKNNRPS | FSRDSSGFQVF
3.98 | 1 of 3 | EGDSLRYYYAN | GKCNRPS | SSRDSSGFKVD
3.65 | 3 of 3 | EGDSLRYYYRN | GKNERPS | SSRDSSGFPVF
3.68 | 3 of 3 | EGDSLLYYYMN | GKYNRPS | SSRDSSGFQVF

The last 7 entries again:

CDR-L1,CDR-L2,CDR-L3,mean log10 Kd (nM),detected
EGDSLRYYYAN,GKNNRWS,SSRDSSMSQVF,3.26,2 of 3
EGDSLRYYYAN,GRNNRPS,SWRDSSGFQVY,2.98,2 of 3
EGDSLRLYYAN,DKNNRPS,SSRDSSGMQVF,2.85,2 of 3
AGDSPRYYYAN,GKNNRPS,FSRDSSGFQVF,4.03,1 of 3
EGDSLRYYYAN,GKCNRPS,SSRDSSGFKVD,3.98,1 of 3
EGDSLRYYYRN,GKNERPS,SSRDSSGFPVF,3.65,3 of 3
EGDSLLYYYMN,GKYNRPS,SSRDSSGFQVF,3.68,3 of 3

Background: pairings of library AAYL52 with three empty control strains gave a value in 28% of cases (median 3.91, 5th percentile 2.90). Values in that range, when seen in few replicates, are hard to tell from nonspecific mating.